Target: Acetylcholinesterase (Homo sapiens, UniProt P22303)
Experiment: Inhibition of recombinant human AChE

Chains of the proteins cited; added tags and fusions are not shown. Lines headed by an entry give the natural chain unless they say otherwise; changes in a name come on top.
UniProt P22303: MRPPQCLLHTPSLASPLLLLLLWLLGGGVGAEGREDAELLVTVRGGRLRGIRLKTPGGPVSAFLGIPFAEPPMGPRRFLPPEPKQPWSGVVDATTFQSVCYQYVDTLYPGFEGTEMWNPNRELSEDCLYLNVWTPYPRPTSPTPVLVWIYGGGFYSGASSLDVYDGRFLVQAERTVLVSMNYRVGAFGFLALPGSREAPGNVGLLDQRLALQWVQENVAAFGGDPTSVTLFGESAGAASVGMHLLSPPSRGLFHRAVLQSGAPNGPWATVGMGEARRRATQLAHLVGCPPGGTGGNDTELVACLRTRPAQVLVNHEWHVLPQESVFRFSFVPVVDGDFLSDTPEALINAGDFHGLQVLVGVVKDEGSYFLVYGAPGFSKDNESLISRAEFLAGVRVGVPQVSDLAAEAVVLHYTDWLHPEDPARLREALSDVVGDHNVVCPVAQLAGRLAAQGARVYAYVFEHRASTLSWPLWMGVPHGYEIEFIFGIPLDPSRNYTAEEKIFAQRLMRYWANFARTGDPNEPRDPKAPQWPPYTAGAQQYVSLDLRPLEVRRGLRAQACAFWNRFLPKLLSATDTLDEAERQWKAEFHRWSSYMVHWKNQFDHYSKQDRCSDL

SMILES: CNC(=O)Oc1cccc(CN(C)CCCCCCCOc2ccc3c(c2)OCC3=O)c1
- IC50: 1.61 µM

Reference: ChEMBL document CHEMBL1140306, “Cholinesterase inhibitors: xanthostigmine derivatives blocking the acetylcholinesterase-induced beta-amyloid aggregation” (J Med Chem, 2005)
